Ab-14 heavy chain CDR variants: yeast mating affinities

Binding partner: SARS-CoV-2 spike HR2 peptide, sequence PDVDLGDISGINAS.

Parent scFv Ab-14: VH joined to VL by three GGGGS repeats. Changes lie in the heavy chain CDRs alone.
VH: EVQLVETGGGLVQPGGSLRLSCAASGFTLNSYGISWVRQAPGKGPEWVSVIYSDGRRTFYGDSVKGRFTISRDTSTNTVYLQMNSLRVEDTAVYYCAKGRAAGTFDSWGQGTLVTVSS
VL: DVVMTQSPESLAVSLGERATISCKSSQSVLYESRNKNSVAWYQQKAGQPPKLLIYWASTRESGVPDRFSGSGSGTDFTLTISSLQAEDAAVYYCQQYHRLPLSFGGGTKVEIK

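Phage display of a naive human antibody library on the peptide gave the parent. These sequences belong to a second round, designed from the earlier measurements on random variants of the parent. Their group label is 14H_En_Gen (En: ensemble of fine-tuned language models; Gen: genetic algorithm). AlphaSeq pools MATa yeast showing the antibodies with MATalpha yeast showing the peptide. Mating (16 h, 30 °C) was followed by selection of diploids and sequencing of their barcodes. Scores were corrected for input abundance and mapped to Kd with protein pairs of known affinity run in the same pool. The assay was run in six technical replicates.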

The parent's heavy chain CDRs are GFTLNSYGIS, VIYSDGRRTFYGDSVK, GRAAGTFDS; each variant's own CDRs replace them letter for letter. Affinities are written as log10 Kd with Kd in nM; a lower number is a better binder. "nd" marks a missing value. The strain was present, yet no cells mated with the target were sequenced in that replicate, which points to weak or no binding. Three control strains display no target. For all heavy chain designs, 1% of the pairings with them gave a signal, with a median of 2.08 and one signal in twenty below 0.84, so weak values seen in few replicates may be background. Also given: how often the same scFv was detected with the empty control strains. Values of this round are not directly comparable with the first-round values of the same sequences. In the paper, a design with two or fewer of six values counts as a poor binder.

For GFDLNEYGIS | VIYADGMRTAYTDSVK | GQVAGTFDV, the assay gave -0.06, -0.47, -0.12, -0.23, 0.01, 0.69 (controls 0 of 18).
For GFDLEEYGIS | VIYADGKRTAYSDSVK | GENAGTFDV, the assay gave -0.16, -0.18, -0.33, -0.66, -0.30, -0.11 (controls 1 of 18).
For GFDLNEYGIS | VIYADGSRTFYADSVK | GNNAGTFDV, the assay gave 0.20, 0.08, 0.12, 0.01, -0.31, 0.01 (controls 0 of 18).
For GFDLNEYGIS | VIYADGKRTAYADSVK | GNVAGTFDI, the assay gave -0.11, -0.30, -0.09, 0.14, -0.10, 0.10 (controls 0 of 18).
For GFDLEEYGIS | VIYADGMRTAYADSVK | GQNAGTFDV, the assay gave -0.38, -0.70, -0.87, -0.81, -0.86, -0.23 (controls 0 of 18).
For GFDLDEYGIS | VIYADGKRTAYADSVK | GNVAGTFDI, the assay gave -0.39, -1.26, -0.96, -1.14, -1.19, -0.98 (controls 0 of 18).
For GFDLNEYGIS | VIYADGMRTAYADDVK | GENAGTFDT, the assay gave 1.87, 0.39, 2.23, 1.00, 0.63, 1.70 (controls 0 of 18).
For GFDLEDYGIS | VIYADGKRTAYADSVK | GEVAGTFDV, the assay gave -0.20, -0.27, -0.51, -0.53, -0.82, -0.01 (controls 1 of 18).
For GFDLNEYGIS | VIYADGVRTAYADSVK | GENAGSFDV, the assay gave -0.21, 0.08, 0.50, 0.86, 0.25, 1.07 (controls 0 of 18).
For GFDLNEYGIS | VIYADGVRTAYADDVK | GNQAGTFDV, the assay gave -0.35, -0.55, -0.16, -0.96, -0.72, -0.12 (controls 0 of 18).
For GFDLNEYGIS | VIYADGQRTFYADSVK | GEVAGTFDQ, the assay gave -0.44, -0.54, -0.34, -0.45, -0.09, -0.21 (controls 1 of 18).
For GFDLDEYGIS | VIYADGVRTAYADSVK | GSNAGTFDV, the assay gave -0.65, -0.76, -0.86, -0.74, -0.83, -0.70 (controls 1 of 18).
For GFDLNEYGIS | VIYADGSRTAYVDDVK | GNVAGTFDV, the assay gave -0.25, -0.56, -1.00, -1.14, -0.89, -0.41 (controls 1 of 18).
For GFDLDEYGIS | VIYADGQRTAYADKVK | GENAGTFDV, the assay gave 0.07, -0.22, -0.40, -0.52, -0.46, -0.22 (controls 0 of 18).
For GFDLEDYGIS | VIYADGRRTAYADSVK | GNNAGTFDV, the assay gave 0.48, -0.33, -0.38, -0.77, 0.07, -0.91 (controls 0 of 18).
For GFDLNEYGIS | VIYADGKRTAYADSVK | GENAGTFVQ, the assay gave nd, 2.75, 1.65, 1.46, nd, 1.40 (controls 0 of 18).
For GFDLNEYGIS | VIYADGRRTAYADNVK | GNTAGTFDV, the assay gave 0.46, -0.69, -0.61, -0.72, -0.88, -0.18 (controls 0 of 18).
For GFNLDEYGIS | VIYADGMRTAYSDSVK | GEVAGTFDV, the assay gave -0.41, -0.49, -0.81, -0.77, -0.36, -0.30 (controls 0 of 18).
For GFDLDEYGIS | VIYADGMRTAYIDSVK | GNVAGTFDI, the assay gave -0.01, -0.80, -0.78, -0.77, -0.81, -0.88 (controls 0 of 18).
For GFDLNEYGIS | VIYADGMRTAYADDVK | GGNAGTFDL, the assay gave -0.10, 0.10, -0.24, -0.50, 0.05, 0.25 (controls 0 of 18).
For GFDLNEYGIS | VIYADGMRTAYSDDVK | GENAGTFDQ, the assay gave -0.09, -0.23, 0.48, 0.20, 0.05, 0.58 (controls 0 of 18).
For GFDLNEYGIS | VIYADGMRTAYVDSVK | GNTAGTFDV, the assay gave 0.12, -0.24, -0.64, -0.59, 0.01, -0.31 (controls 0 of 18).
For GFDLNEYGIS | VIYADGMRTAYADSVK | GQNAGTFDL, the assay gave -0.86, -0.96, -1.29, -1.29, -1.54, -0.87 (controls 0 of 18).
For GFDLDEYGIS | VIYADGMRTAYSDSVK | GEQAGTFDV, the assay gave -0.03, -0.03, -0.22, -0.52, -0.23, -0.03 (controls 0 of 18).
For GFDLDEYGIS | VIYADGMRTVYADSVK | GNTAGTFDI, the assay gave -0.68, -0.72, -0.55, -0.64, -0.38, -0.52 (controls 0 of 18).
For GFDLNEYGIS | VIYADGSRTAYTDSVK | GEVAGTFDV, the assay gave 0.35, 0.15, 0.16, 0.37, 0.10, 0.33 (controls 3 of 18).
For GFDLNEYGIS | VIYADGKRTAYADSVK | GNTAGTFDL, the assay gave -0.32, -0.35, -0.49, -0.71, -0.49, -0.27 (controls 1 of 18).
For GFNLDEYGIS | VIYADGQRTAYADSVK | GNVAGTFDV, the assay gave -0.34, -0.54, -0.63, -0.93, -0.77, -0.55 (controls 0 of 18).
For GFDLNEYGIS | VIYADGKRTAYADDVK | GNQAGTFDV, the assay gave 0.38, 0.11, -0.18, 0.51, 0.13, 0.22 (controls 0 of 18).
For GFDLNEYGIS | VIYADGSRKAYADSVK | GQNAGTFDV, the assay gave -0.12, 0.57, 0.55, -0.20, 0.24, -0.02 (controls 0 of 18).
For GFDLNEYGIS | VIYADGVRTAYSDSVK | GSNAGTFDI, the assay gave -0.24, -0.39, -0.50, -0.15, 0.10, -0.35 (controls 1 of 18).
For GFDLNEYGIS | VIYADGVRTFYSDSVK | GENAGTFDV, the assay gave 0.15, -0.29, -0.71, -0.22, -0.28, 0.04 (controls 1 of 18).
For GFDLDEYGIS | VIYADGQRTAYADSVK | GNVAGTFDE, the assay gave -0.60, -0.59, -0.54, -0.92, -0.82, 0.06 (controls 0 of 18).
For GFDLNEYGIS | VIYADGMRTAYADSVK | GNVAGTFTV, the assay gave -0.51, -0.62, -0.71, -0.64, -0.52, -0.49 (controls 0 of 18).
For GFDLNEYGIS | VIYADGSRTVYADSVK | GNNAGTFDI, the assay gave -0.10, 0.59, -0.14, -0.21, -0.35, 0.37 (controls 0 of 18).
For GFDLDEYGIS | VIYADGMRTAYVDSVK | GNQAGTFDL, the assay gave -1.17, -1.07, -0.69, -0.90, -0.97, -0.39 (controls 0 of 18).
For GFDLNEYGIS | VIYADGMRTVYTDSVK | GENAGTFDV, the assay gave -0.68, -0.47, -0.74, -0.97, -0.67, -0.19 (controls 0 of 18).

2 of these entries, quoted again:

CDR-H1	CDR-H2	CDR-H3	log10 Kd (nM) by replicate	empty controls
GFDLDEYGIS	VIYADGMRTVYADSVK	GNTAGTFDI	-0.68, -0.72, -0.55, -0.64, -0.38, -0.52	0 of 18
GFDLNEYGIS	VIYADGRRTAYADNVK	GNTAGTFDV	0.46, -0.69, -0.61, -0.72, -0.88, -0.18	0 of 18

From the AlphaSeq antibody data of Li et al. 2023 (doi:10.1038/s41467-023-39022-2), copy in the FLAb collection.